{"source": "patent US9657059B2", "about": "“Immune system modulators” (Canimguide Therapeutics AB, priority 2013, dated 2017)", "key": {"[1]": {"test_system": "NK-cell cytotoxicity against K562 target cells", "format": "cell-based, human", "method": "The ability of specific albumin fragments to impact NK-cell cytotoxicity was also evaluated. In these experiments, synthetic peptides corresponding to albumin fragments (P3028, P3026, and P3027) (SEQ ID NOs: 185, 183, and 184, respectively) were prepared and the amount of lysis of K562 target cells was assessed (see Example 4)."}, "[2]": {"test_system": "K562 target cells", "assay": "NK-cell cytotoxicity (NKTEST)", "format": "cell-based, human", "conditions": "10 ug/ml, effector:target 40:1, four donors", "method": "The NK-cell cytotoxic activity of blood mononuclear cells from four healthy donors was tested. Mononuclear cells were separated by standard Ficoll-paque Plus (Pharmacia AB, Sweden) density gradient centrifugation from heparinized blood obtained from healthy donors. NK cell cytotoxic activity of the mononuclear cells was then tested using a commercial kit (NKTEST, Orpegen Pharma GmblI, Heidelberg, Germany) following the manufacturers protocol. Briefly, the kit contains cryopreserved, NK-sensitive target cells (K562) labeled with a lipophilic green fluorescent membrane dye, which enables discrimination of effector and target cells. After incubation with effector cells, killed target cells are identified by a DNA-stain, which penetrates and specifically stain the nuclei of dead target cells. This way the percentage of killed targets can be determined by flow cytometry. The mononuclear cells were preincubated for 30 min at 37° C. with the indicated peptides (peptides have been described previously) at 10 ug/ml. Target cells were then added, giving an effector:target ratio of 40:1, and the cell mixture incubated at 37° C. for 3-4 hours. Samples were analysed on a FACSCalibur (BD Biosciences, San Jose, Calif.)."}}, "data": [{"smiles": "CC[C@H](C)[C@H](NC(=O)[C@H](CC(C)C)NC(=O)[C@H](CC(N)=O)NC(=O)[C@H](CCC(N)=O)NC(=O)[C@@H]1CCCN1C(=O)[C@H](CCC(=O)O)NC(=O)[C@H](CCC(=O)O)NC(=O)[C@@H](NC(=O)[C@H](CC(C)C)NC(=O)[C@@H]1CCCN1C(=O)[C@H](CCCCN)NC(=O)[C@H](Cc1ccccc1)NC(=O)[C@H](CCC(=O)O)NC(=O)[C@H](CC(=O)O)NC(=O)[C@H](Cc1ccccc1)NC(=O)[C@@H](N)C(C)C)C(C)C)C(=O)N[C@@H](CCCCN)C(=O)O", "note": "[P3028]", "values": [{"measurement": "effect on NK-cell cytotoxicity", "setting": "[1]", "value": "caused a reduction in NK-cell cytotoxicity"}, {"measurement": "effect on NK-cell cytotoxicity (percent specific lysis)", "setting": "[2]", "value": "reduced the percent specific lysis of K562 target cells by all four donors"}]}]}
